# Literature values in patent US20220125844A1 (priority 2020, published 2022).
# Tested on: primary human natural killer (NK) cells
# Conditions: in vitro, cells preincubated with opioid; cited from earlier work
structure (smiles),measurement,value
CN(C(=O)Cc1ccc(Cl)c(Cl)c1)[C@@H]1CCCC[C@H]1N1CCCC1,primary human NK cell cytotoxicity after preincubation with opioid,reduced
